Assay results reported in patent US9701713B2, “Compositions and methods for introduction of macromolecules into cells” (The Regents of the University of Colorado, a body corporate, priority 2011, dated 2017).

Chains of the proteins cited; added tags and fusions are not shown. Lines headed by an entry give the natural chain unless they say otherwise; changes in a name come on top.
UniProt P07315: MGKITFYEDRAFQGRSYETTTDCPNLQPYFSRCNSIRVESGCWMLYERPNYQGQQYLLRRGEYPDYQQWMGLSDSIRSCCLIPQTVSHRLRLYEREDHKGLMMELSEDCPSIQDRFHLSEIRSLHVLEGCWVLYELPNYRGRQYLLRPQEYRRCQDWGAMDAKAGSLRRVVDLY

Molecular target: T1, T5P γ-crystallin-GFP fusion protein (Homo sapiens, UniProt P07315, T5P)
T1 construct: expressed in transfected cells
T1 sequence (P07315 1-174 T5P): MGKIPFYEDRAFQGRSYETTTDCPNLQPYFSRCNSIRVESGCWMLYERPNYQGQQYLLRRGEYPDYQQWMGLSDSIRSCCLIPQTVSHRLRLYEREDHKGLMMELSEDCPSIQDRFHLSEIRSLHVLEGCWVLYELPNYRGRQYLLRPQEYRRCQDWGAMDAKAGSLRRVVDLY
Test: Tissue culture model of aggregation-prone T5P γ-crystallin-GFP fusion
Assay type: cell-based
Details: cells expressing T5P γ-crystallin-GFP
Method: A tissue culture model system was tested using an endogenous target of alpha crystallin. Human gamma crystallin, either in its wild type form (γ-crystallin) or in an aggregation-prone mutant form (T5P γ-crystallin), was expressed as a fusion with green fluorescent protein (GFP).

B1: alpha crystallin: alpha crystallin with chaperone-like activity applied to cells; b52 and b54 name it αA crystallin (protein, UniProt P02489 1-173, looked up)
Alpha-crystallin A chain: MDVTIQHPWFKRTLGPFYPSRLFDQFFGEGLFEYDLLPFLSSTISPYYRQSLFRTVLDSGISEVRSDRDKFVIFLDVKHFSPEDLTVKVQDDFVEIHGKHNERQDDHGYISREFHRRYRLPSNVDQSALSCSLSADGMLTFCGPKIQTGLDATHAERAIPVSREEKPTSAPSS
  fluorescence of T5P-GFP fusion protein (prevention of aggregation): prevented the loss of fluorescence
